The values that follow come from ChEMBL document CHEMBL3608214, “Optimization of Novel Antagonists to the Neurokinin-3 Receptor for the Treatment of Sex-Hormone Disorders (Part II)” (ACS Med Chem Lett, 2015).

Chains of the proteins cited; added tags and fusions are not shown.
UniProt P29371, whole entry: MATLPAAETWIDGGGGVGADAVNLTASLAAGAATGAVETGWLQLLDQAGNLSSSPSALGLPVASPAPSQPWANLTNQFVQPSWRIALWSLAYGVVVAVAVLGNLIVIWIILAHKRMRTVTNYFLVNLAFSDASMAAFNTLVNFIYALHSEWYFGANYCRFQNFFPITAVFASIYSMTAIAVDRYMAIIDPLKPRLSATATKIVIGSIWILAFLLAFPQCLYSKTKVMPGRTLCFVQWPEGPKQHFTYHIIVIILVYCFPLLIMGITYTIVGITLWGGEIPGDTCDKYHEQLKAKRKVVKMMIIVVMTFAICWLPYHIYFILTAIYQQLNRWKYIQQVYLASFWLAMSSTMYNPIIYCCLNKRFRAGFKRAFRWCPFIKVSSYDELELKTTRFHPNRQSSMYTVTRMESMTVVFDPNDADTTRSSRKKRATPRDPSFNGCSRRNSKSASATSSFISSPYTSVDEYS

Data set [1] addresses T1, Neuromedin-K receptor (Homo sapiens, UniProt P29371).
The target in data set [2] is T1, Neuromedin-K receptor. The source holds these as a separate data set.
Data set [3] in a line: in vivo. The conditions noted are these: rat, brain, 1 mg/kg.
The nature of data set [4]: in vivo. As to conditions: rhesus monkey, plasma, po, 5 mg/kg.

Regarding `Cc1nnc(-c2nnc3n2CCN(C(=O)c2ccc(F)cc2)[C@@H]3C)s1`, in data set [1], the Ki is 10000 nM. In addition, in data set [2], the IC50 is 15800 nM.
The matching figures for `C[C@@H]1c2nnc(-c3ncns3)n2CCN1C(=O)c1ccc(F)cc1`: 1260 nM and 1260 nM.
Regarding `Cc1nsc(-c2nnc3n2CCN(C(=O)c2ccc(F)cc2)C3(C)C)n1`, the inhibition constant Ki in data set [1] was 200 nM. Besides, the IC50 in data set [2] was 631 nM.
In the case of `Cc1nsc(-c2nnc3n2CCN(C(=O)c2ccc(F)cc2)[C@@H]3C)n1` [FEZOLINETANT], the fraction unbound at 1 h in data set [3] came to 0.525. For the same compound, the free fraction (fraction unbound) at […] in data set [4] amounted to 0.532.
